# Biological target: A2A adenosine receptors (Rattus norvegicus, UniProt P30543)
# Chains of the proteins cited; added tags and fusions are not shown. Lines headed by an entry give the natural chain unless they say otherwise; changes in a name come on top.
# UniProt P30543, whole entry: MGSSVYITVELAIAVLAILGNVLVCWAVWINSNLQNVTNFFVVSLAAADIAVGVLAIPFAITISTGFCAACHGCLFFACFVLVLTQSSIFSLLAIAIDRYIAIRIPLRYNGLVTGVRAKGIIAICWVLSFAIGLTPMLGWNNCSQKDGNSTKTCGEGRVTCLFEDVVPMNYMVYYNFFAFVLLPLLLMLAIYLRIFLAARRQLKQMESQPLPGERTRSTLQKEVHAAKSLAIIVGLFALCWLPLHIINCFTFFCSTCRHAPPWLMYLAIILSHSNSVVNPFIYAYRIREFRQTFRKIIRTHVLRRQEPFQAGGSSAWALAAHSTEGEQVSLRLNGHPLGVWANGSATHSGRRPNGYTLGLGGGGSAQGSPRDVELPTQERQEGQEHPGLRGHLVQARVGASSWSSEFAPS
# Experiment: Displacement of specific [3H]CGS 21680 binding in rat striatal membranes
# Conditions: Table 2; at 10^−4 M
structure (smiles),measurement,value
CCCOC(=O)c1c(-c2ccccc2)nc(CC)c(C(=O)SCC2COC(C)(C)O2)c1CCC (racemic),rA2A displacement of specific binding (class d),d (10^−4) (Displacement of <10% of specific binding at the indicated concentration (M).)

# Source: patent US6376521B1, “A3 adenosine receptor antagonists” (The United States of America as represented by the …, priority 1998, dated 2002)
